From ChEMBL document CHEMBL2010677, “Anti-inflammatory and PPAR transactivational effects of secondary metabolites from the roots of Asarum sieboldii” (Bioorg Med Chem Lett, 2012)

The compounds below were run on HepG2 (assay: Inhibition of TNFalpha-induced NFkappaB transcriptional activity in human HepG2 cells pretreated for 1 hr before TNFalpha challenge by luciferase reporter gene analysis).
Assay type: cell-based
With `CC=C/C=C\CC/C=C/C=C/C(=O)NCC(C)C` the inhibition was “Dose-dependent effect”. For `c1cc2c(cc1[C@H]1OC[C@H]3[C@@H]1CO[C@H]3c1ccc3c(c1)OCO3)OCO2` [ASARININ], the inhibition was “Dose-dependent effect”. With `c1cc2c(cc1[C@H]1OC[C@H]3[C@@H]1CO[C@@H]3c1ccc3c(c1)OCO3)OCO2` [SESAMIN] the inhibition was “Dose-dependent effect”.
